Assay results from ChEMBL document CHEMBL4177716, “Design, synthesis and pharmacological evaluation of some novel indanone derivatives as acetylcholinesterase inhibitors for the management of cognitive dysfunction” (Bioorg Med Chem, 2018).

Biological target: T1, Acetylcholinesterase (Mus musculus) (UniProt P21836)
T1 sequence (whole entry): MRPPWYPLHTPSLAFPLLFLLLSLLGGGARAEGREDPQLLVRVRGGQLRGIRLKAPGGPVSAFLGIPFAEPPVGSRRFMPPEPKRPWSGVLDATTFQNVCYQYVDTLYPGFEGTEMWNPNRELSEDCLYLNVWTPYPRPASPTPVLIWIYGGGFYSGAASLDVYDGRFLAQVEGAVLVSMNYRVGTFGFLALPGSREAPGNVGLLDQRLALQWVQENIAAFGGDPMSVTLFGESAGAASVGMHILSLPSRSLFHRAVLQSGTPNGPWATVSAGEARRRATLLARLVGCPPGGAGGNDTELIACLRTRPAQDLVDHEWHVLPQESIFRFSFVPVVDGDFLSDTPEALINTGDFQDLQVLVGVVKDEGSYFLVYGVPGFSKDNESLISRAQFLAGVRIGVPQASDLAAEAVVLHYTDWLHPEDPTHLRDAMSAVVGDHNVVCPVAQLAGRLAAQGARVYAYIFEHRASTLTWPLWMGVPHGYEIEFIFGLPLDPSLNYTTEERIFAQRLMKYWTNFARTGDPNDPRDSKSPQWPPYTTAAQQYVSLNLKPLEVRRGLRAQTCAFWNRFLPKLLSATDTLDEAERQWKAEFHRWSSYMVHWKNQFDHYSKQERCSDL
Experiment: Inhibition of AchE in albino LACA mouse brain at 10^-3 M using acetylthiocholine iodide as substrate incubated for 10 mins measured for 2 mins by Ellman's method relative to control

Row | SMILES | inhibition [%]
1 | COc1ccc2c(c1)C/C(=C/c1ccc(N3CCN(CCCN(C)C)CC3)cc1)C2=O | 87
2 | COc1ccc2c(c1)C(=O)/C(=C\c1ccc(N3CCN(C)CC3)cc1)C2 | 15.5
3 | COc1cc2c(cc1OC)C(=O)/C(=C\c1ccc(N3CCN(C)CC3)cc1)C2 | 54.7
4 | CCN1CCN(c2ccc(/C=C3/Cc4cc(OC)ccc4C3=O)cc2)CC1 | 18.6
5 | COc1ccc2c(c1)C(=O)/C(=C\c1ccc(N3CCN(CCCN(C)C)CC3)cc1)C2 | 88
6 | COc1ccc2c(c1)C/C(=C/c1ccc(N3CCN(c4ccccc4)CC3)cc1)C2=O | 6.88
7 | COc1cc2c(cc1OC)C(=O)/C(=C\c1ccc(N3CCN(CCCN(C)C)CC3)cc1)C2 | 90.3
8 | COc1ccc2c(c1)C/C(=C/c1ccc(N3CCN(C)CC3)cc1)C2=O | 17.9
9 | COc1cc2c(cc1OC)C(=O)C(CC1CCN(CC(=O)Nc3ccccc3)CC1)C2 (centres undefined) | 5.81
